This is a selection; strong and weak results do not stand in their true shares. Some salts or complexes appear as unconnected parts, following the source record. Activity calls are given as the source filed them.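 The calls were made as follows: active = inhibition above the campaign mean inhibition plus 3 SD (cut at about 35% in these data); inactive = the rest.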

Amino acid sequences for entries named in this document (tags omitted).
UniProt P78417, whole entry: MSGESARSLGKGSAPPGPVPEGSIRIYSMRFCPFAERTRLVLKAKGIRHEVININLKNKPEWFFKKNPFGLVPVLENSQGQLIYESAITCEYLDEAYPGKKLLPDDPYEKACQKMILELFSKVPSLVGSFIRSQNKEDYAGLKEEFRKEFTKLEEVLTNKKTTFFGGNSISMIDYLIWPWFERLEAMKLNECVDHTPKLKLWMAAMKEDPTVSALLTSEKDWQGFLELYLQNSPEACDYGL

By inhibition is commonly meant the relative decrease from the control value, in per cent.

The target of this assay is Glutathione S-transferase omega-1 (Homo sapiens) (UniProt P78417). In words: human GSTO1 enzyme inhibition – biochemical, fluorescence polarization, counter-screen for RBBP9 inhibitor project, primary screen (AID 1974).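 Also: 0% = GSTO1-1 with DMSO and 100% = wells lacking GSTO1-1 enzyme.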 Particulars: recombinant GSTO1, activity-based probe fluorescence polarization; at 5.96 µM; hits give high values. Background: In fluorescence polarisation assays a small probe gives low polarisation when free and higher when bound to something large.
Regarding `Cc1ccccc1NP(C)(=O)Nc1ccccc1C`, the inhibition is inactive: 8.37%.

For `CP(=O)(Nc1ccc2c(c1)OCCO2)Oc1ccccc1` (configuration not stated), the inhibition was inactive: 5.28%.

As to `CCOP(C)(=S)SCC(=O)NC(C)(CC)C(=O)O` (configuration not stated), the inhibition is inactive: -14.7%.

With `CP(=O)(Nc1ccc(SC(F)(F)F)cc1)Oc1ccc(F)cc1` (configuration not stated), the inhibition was inactive: 5.87%.

As to `O=[N+]([O-])c1cc([N+](=O)[O-])c(NCC2CCS(=O)(=O)C2)c([N+](=O)[O-])c1` (configuration not stated), the inhibition was inactive: 12.7%.

As to `COc1ccc(NP(C)(=O)Oc2ccccc2OC)cc1` (configuration not stated), the inhibition was inactive: 9.95%.

With `CN(C)CCOC(=O)C(O)(c1ccccc1)C1CCCCC1` (configuration not stated), the inhibition is inactive: 14.1%.

For `COc1ccc(OP(C)(=O)Nc2cccc(Br)c2)cc1` (configuration not stated), the inhibition is inactive: -6.17%.

On to `O=[N+]([O-])c1cc([N+](=O)[O-])c(OC2CCCCC2O)c([N+](=O)[O-])c1` (configuration not stated), for which the inhibition is inactive: -4.58%.

With `CCCCCOc1ccc(NP(C)(=O)Oc2ccc(Cl)cc2Cl)cc1` (configuration not stated), the inhibition is inactive: 0.75%.

Take `CP(=O)(Nc1ccccc1)Oc1ccc(F)cc1` (configuration not stated): the inhibition was inactive: 2.77%.

In the case of `CCN(CC)CCCOC(=O)C(O)(c1ccccc1)C1CCCCC1` (configuration not stated), the inhibition is inactive: 5.22%.

In the case of `COc1ccc(OP(C)(=O)Nc2ccc(SC(F)(F)F)cc2)cc1` (configuration not stated), the inhibition is inactive: 9.35%.

For the molecule `CCOC(=O)c1ccc(NP(C)(=O)Oc2ccc(F)cc2)cc1` (configuration not stated), the inhibition was inactive: 1.67%.

Turning to `COc1ccc2c(c1O)-c1c(O)c(OC)cc3c1[C@H](C2)[N+](C)(C)CC3.O=[N+]([O-])c1cc([N+](=O)[O-])c([O-])c([N+](=O)[O-])c1[O-]`, the inhibition is inactive: 12.4%.

Turning to `O=C(OCCN1CCN(CCOCc2ccccc2)CC1)C(O)(c1ccccc1)c1ccccc1`, the inhibition is inactive: 7.12%.

For `O=C(OC1CN2CCC1CC2)c1ccc([N+](=O)[O-])cc1` (configuration not stated), the inhibition was inactive: -5.22%.

In the case of `CC(C)c1ccc(OP(C)(=O)Nc2ccc(SC(F)(F)F)cc2)cc1` (configuration not stated), the inhibition was inactive: -2.08%.

Consider `CP(=O)(Nc1ccccc1F)Oc1ccccc1` (configuration not stated), for which the inhibition was inactive: -0.88%.

Consider `CCc1ccc(OP(C)(=O)O)cc1`, for which the inhibition is inactive: 8.72%.

For `COc1ccccc1OP(C)(=O)Nc1ccc(C)cc1C` (configuration not stated), the inhibition is inactive: -0.94%.

Turning to `CP(=O)(Nc1ccccn1)Oc1ccccc1` (configuration not stated), the inhibition is inactive: 0.33%.

With `O=[N+]([O-])c1cc([N+](=O)[O-])c(Nc2ccccn2)c([N+](=O)[O-])c1`, the inhibition was active: 84.8%.

Regarding `Cc1c(NP(C)(=O)Oc2ccc(C(C)C)cc2)c(=O)n(-c2ccccc2)n1C` (configuration not stated), the inhibition is inactive: 4.76%.

As to `CN(C)CCOC(=O)C(O)(c1ccccc1)C1CCCC1` (configuration not stated), the inhibition is inactive: 2.18%.

As for `COc1ccccc1OP(C)(=O)Nc1ccc(Br)cc1` (configuration not stated), the inhibition was inactive: -1.81%.

For `CP(=O)(OCCOc1ccccc1)OCCOc1ccccc1`, the inhibition was inactive: 12.2%.

In the case of `CP(=O)(Nc1ccc(Cl)cc1Cl)Oc1ccccc1` (configuration not stated), the inhibition is inactive: -1.37%.

Take `Cc1nc2ccc3ccccc3c2o1.O=[N+]([O-])c1cc([N+](=O)[O-])c(O)c([N+](=O)[O-])c1`: the inhibition is inactive: 19%.

Take `COc1ccc(OP(C)(=O)Nc2ccccc2Br)cc1` (configuration not stated): the inhibition is inactive: -0.98%.

Regarding `COc1ccccc1OP(C)(=O)Nc1ccc(C)c(C)c1` (configuration not stated), the inhibition was inactive: 5.9%.

Take `Cc1cc(C)cc(OP(C)(=O)Nc2cccc(C(F)(F)F)c2)c1` (configuration not stated): the inhibition is inactive: -1.64%.

`CP(=O)(OC12CC3CC(CC(C3)C1)C2)OC12CC3CC(CC(C3)C1)C2`: the inhibition was inactive: 4.02%.

Consider `CCOC(=O)c1ccc(NP(C)(=O)Oc2ccc(Cl)cc2)cc1` (configuration not stated), for which the inhibition was inactive: 4.63%.

Take `Nc1ccc2c(ccc3cccnc32)n1.O=[N+]([O-])c1cc([N+](=O)[O-])c(O)c([N+](=O)[O-])c1`: the inhibition was inactive: -1.55%.

Take `CN(C)C(=O)c1c([N+](=O)[O-])cc([N+](=O)[O-])cc1[N+](=O)[O-]`: the inhibition is inactive: 34.3%.

Take `CP(=O)(Nc1ccc(Cl)cc1)Oc1ccc(F)cc1` (configuration not stated): the inhibition is inactive: -1.21%.

As to `CC(C)(C)c1ccc(OP(C)(=O)O)cc1`, the inhibition was inactive: -1.06%.

For the molecule `COc1ccccc1OP(C)(=O)Nc1ccccc1Br` (configuration not stated), the inhibition is inactive: -1.87%.

`CCc1ccc(OP(C)(=O)Nc2cccnc2)cc1` (configuration not stated): the inhibition was inactive: -0.46%.

In the case of `CP(=O)(Oc1ccccc1)N1CCOC1=O` (configuration not stated), the inhibition is inactive: -3.14%.

`O=C(OCCCN1CCCC1)C(O)(c1ccccc1)C1CCCCC1` (configuration not stated): the inhibition was inactive: 10%.

Take `COc1ccccc1OP(C)(=O)Nc1c(C)n(C)n(-c2ccccc2)c1=O` (configuration not stated): the inhibition is inactive: 1.22%.

As for `COc1ccc(OP(C)(=O)Nc2ccc(Br)cc2)cc1` (configuration not stated), the inhibition is inactive: 1.1%.

For the molecule `CCN(CC)CC(O)COC(=O)C(O)(c1ccccc1)C1CCCCC1` (configuration not stated), the inhibition was inactive: -2.01%.

On to `CP(=O)(Nc1ccccn1)Oc1ccc(Cl)cc1` (configuration not stated), for which the inhibition was inactive: 1.32%.

`CCOP(C)(=S)SCC(=O)NC(C)C(=O)O` (configuration not stated): the inhibition is inactive: 0.94%.

As to `O=[N+]([O-])c1cc([N+](=O)[O-])c(O)c([N+](=O)[O-])c1.c1ccc(Oc2ccncc2)cc1`, the inhibition is inactive: -1.19%.

In the case of `CCOC(=O)c1ccc(NP(C)(=O)Oc2ccc(OC)cc2)cc1` (configuration not stated), the inhibition is inactive: -4.77%.

Consider `Cc1cc(C)cc(OP(C)(=O)Nc2ccc(SC(F)(F)F)cc2)c1` (configuration not stated), for which the inhibition was inactive: -2.5%.

`CCc1ccc(OP(C)(=O)N2CCN(c3ccc([N+](=O)[O-])cc3)CC2)cc1` (configuration not stated): the inhibition is inactive: 3.08%.

`CP(=O)(NC(=O)Nc1ccccc1)Oc1ccccc1` (configuration not stated): the inhibition was inactive: -1.67%.

Take `CP(=O)(Oc1ccccc1)OC(c1ccccc1)C(F)(F)F` (configuration not stated): the inhibition was inactive: -4.32%.

On to `CP(=O)(Nc1ccc(SC(F)(F)F)cc1)Oc1ccc(Cl)cc1` (configuration not stated), for which the inhibition is inactive: 7.16%.

Consider `Cc1cccc(C)c1OP(C)(=O)Nc1ccc(SC(F)(F)F)cc1` (configuration not stated), for which the inhibition is inactive: -1.69%.

Consider `COc1ccccc1OP(C)(=O)Nc1ccccc1` (configuration not stated), for which the inhibition was inactive: 7.01%.

With `CP(=O)(Nc1ccccc1Br)Oc1ccccc1` (configuration not stated), the inhibition is inactive: -3.4%.

Turning to `CP(=S)(Nn1cnnc1)Oc1ccccc1` (configuration not stated), the inhibition was inactive: 8.44%.

For `COc1ccc(OP(C)(=O)Nc2cccc(F)c2)cc1` (configuration not stated), the inhibition is inactive: 3.79%.

Take `COc1ccccc1OP(C)(=O)Nc1cc(Cl)ccc1C` (configuration not stated): the inhibition is inactive: -1.54%.

`Cc1cc(C)cc(OP(C)(N)=O)c1` (configuration not stated): the inhibition was inactive: -5.65%.

In the case of `CCOC(=O)c1ccc(NP(C)(=O)Oc2ccccc2)cc1` (configuration not stated), the inhibition was inactive: 2.35%.
